Measured values published in article PMC5990611, “An in Vitro Assay of hERG K^+ Channel Potency for a New EGFR Inhibitor FHND004” (Frontiers in Pharmacology, 2018).

Amino acid sequences for entries named in this document (tags omitted).
UniProt O35219, whole entry: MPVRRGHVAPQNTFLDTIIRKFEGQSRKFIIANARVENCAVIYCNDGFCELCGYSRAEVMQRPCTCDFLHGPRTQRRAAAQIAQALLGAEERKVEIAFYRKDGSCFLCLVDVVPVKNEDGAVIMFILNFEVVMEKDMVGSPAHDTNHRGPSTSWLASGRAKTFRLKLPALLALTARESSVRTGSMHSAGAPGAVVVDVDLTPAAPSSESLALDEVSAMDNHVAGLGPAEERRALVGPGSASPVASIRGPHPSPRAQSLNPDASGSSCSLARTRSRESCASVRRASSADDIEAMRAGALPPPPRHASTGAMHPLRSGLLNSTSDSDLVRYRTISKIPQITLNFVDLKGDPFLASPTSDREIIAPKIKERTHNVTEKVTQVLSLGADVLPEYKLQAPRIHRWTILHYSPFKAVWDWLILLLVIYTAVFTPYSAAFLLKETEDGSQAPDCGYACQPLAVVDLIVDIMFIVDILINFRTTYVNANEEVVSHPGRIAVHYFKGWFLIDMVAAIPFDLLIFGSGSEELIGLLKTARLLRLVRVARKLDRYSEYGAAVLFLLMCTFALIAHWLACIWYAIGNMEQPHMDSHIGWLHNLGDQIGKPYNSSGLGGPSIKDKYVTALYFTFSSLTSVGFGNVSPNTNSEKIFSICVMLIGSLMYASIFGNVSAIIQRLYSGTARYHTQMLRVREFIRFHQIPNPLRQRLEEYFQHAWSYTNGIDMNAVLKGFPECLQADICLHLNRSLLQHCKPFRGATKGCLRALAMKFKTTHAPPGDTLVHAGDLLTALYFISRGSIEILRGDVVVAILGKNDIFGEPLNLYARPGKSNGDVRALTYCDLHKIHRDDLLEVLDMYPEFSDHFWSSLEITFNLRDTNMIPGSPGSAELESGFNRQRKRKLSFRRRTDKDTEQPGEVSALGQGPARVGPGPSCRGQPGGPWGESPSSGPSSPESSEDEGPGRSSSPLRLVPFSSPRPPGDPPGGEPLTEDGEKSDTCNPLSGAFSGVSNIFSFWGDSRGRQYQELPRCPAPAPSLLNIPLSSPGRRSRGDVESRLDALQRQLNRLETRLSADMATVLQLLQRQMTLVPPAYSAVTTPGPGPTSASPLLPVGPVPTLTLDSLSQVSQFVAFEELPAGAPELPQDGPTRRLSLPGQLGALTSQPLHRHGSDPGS

Columns and labels:
hERG K+ channels (WT) = hERG K+ channels (WT) (Homo sapiens, UniProt Q12809); experiment: Whole-cell patch clamp of IhERG in HEK293 cells expressing WT hERG; format: cell-based
F557L-hERG = F557L-hERG (Homo sapiens, UniProt Q12809, F557L); experiment: Whole-cell patch clamp, F557L-hERG mutant; format: cell-based
Procedure: (§1) Mutations of hERG channels (Y652A, F656C, S624A, and F557L) were constructed using the KFX-101 kit (Toyobo Co., Ltd., Japan) according to the manufacturer’s instructions. Each mutant was confirmed by sequencing and subsequently subcloned into the full-length cgi-EGFP vector. Plasmid vectors were then amplified in Escherichia coli DH5α and harvested for eukaryotic cell transfection as described above.
(§2) Whole-cell patch clamp technique was employed to record IhERG at room temperature (22 ± 1°C) using an AXON 200B amplifier through a digitizer (DigiData 1440A, Molecular Devices, United States) controlled by pClamp (v10.0) software. Cells were superfused with bath solution containing (mmol/L): NaCl 140, KCl 5.4, MgCl2 1, HEPES 10, glucose 10, and CaCl2 1 (pH 7.4). The pipette solution contained (mmol/L): KCl 140, MgCl2 1, HEPES 10, K-ATP4, and EGTA 5 (pH 7.3). Borosilicate glass electrodes (World Precision Instruments Inc., United States) were pulled on a horizontal pipette puller (P-97, Sutter Instrument Co., United States) to resistances of 2–5 MΩ when filled with the pipette solution. The “pipette-to-bath” liquid junction potential calculated with this filling solution was about -2.7 mV. […]
(§3) Specific voltage pulse protocols are described in Section “Results” and figure legends. The voltage dependence of current activation was determined by fitting the normalized tail current (Itail) vs. test potential (mV) to a Boltzmann function expressed by Itail/Imax = 1/(1+exp[(V1/2-Vm)/k], where V1/2 is the voltage at which the current is half-activated and k is the slope factor. The time constants (tau) for inactivation (τinactivation) and recovery from inactivation (τrecovery) were obtained by fitting a single-exponential equation: y = A1 × exp(-x/t1)+y0, respectively, where t1 represents the time constants. The time constants for deactivation (τdeactivation) were obtained by fitting a double-exponential equation: y = A1 × exp(-x/t1)+A2 × exp(-x/t2)+y0, where t1 represents the slow time constant (τslow) and t2 represents the fast time constant (τfast), respectively. […]

WT/H562P-hERG = WT/H562P-hERG (Homo sapiens, UniProt Q12809, H562P); experiment: Whole-cell patch clamp, HEK293 cells co-expressing WT/H562P-hERG; format: cell-based
Procedure: (§4) The cgi-EGFP-hERG, cgi-EGFP-A422T-hERG, and cgi-EGFP-H562P-hERG plasmids were kindly gifted by Dr. Nipavan Chiamvimonvat (University of California, Davis, CA, United States). Transfections were performed using Lipofectamine^TM 2000 according to manufacturer’s instructions (Invitrogen, United States). EGFP-positive cells were used for current recording at least 36 h after transfection.
as §2, §3

S624A-hERG = S624A-hERG (Homo sapiens, UniProt Q12809, S624A); experiment: Whole-cell patch clamp, S624A-hERG mutant; format: cell-based
Procedure: as §1
(§5) Whole-cell patch clamp technique was employed to record IhERG at room temperature (22 ± 1°C) using an AXON 200B amplifier through a digitizer (DigiData 1440A, Molecular Devices, United States) controlled by pClamp (v10.0) software. Cells were superfused with bath solution containing (mmol/L): NaCl 140, KCl 5.4, MgCl2 1, HEPES 10, glucose 10, and CaCl2 1 (pH 7.4). The pipette solution contained (mmol/L): KCl 140, MgCl2 1, HEPES 10, K-ATP4, and EGTA 5 (pH 7.3). Borosilicate glass electrodes (World Precision Instruments Inc., United States) were pulled on a horizontal pipette puller (P-97, Sutter Instrument Co., United States) to resistances of 2–5 MΩ when filled with the pipette solution. The “pipette-to-bath” liquid junction potential calculated with this filling solution was about -2.7 mV. Because this value was small, no correction of membrane potential was made. […]

[1] = In vivo pharmacokinetic assay in male SD rats; design: species or system rat; details: read-out: maximum serum concentration (Cmax), data not shown
WT/A422T-hERG = WT/A422T-hERG (Homo sapiens, UniProt Q12809, A422T); experiment: Whole-cell patch clamp, HEK293 cells co-expressing WT/A422T-hERG; format: cell-based
Procedure: as §4, §2, §3

F656C-hERG = F656C-hERG (Homo sapiens, UniProt Q12809, F656C); experiment: Whole-cell patch clamp, F656C-hERG mutant, high [K+]e; format: cell-based
Procedure: as §1, §5

Y652A-hERG = Y652A-hERG (Homo sapiens, UniProt Q12809, Y652A); experiment: Whole-cell patch clamp, Y652A-hERG mutant; format: cell-based
Procedure: as §1, §2, §3

IKr in HL-1 cells = IKr in HL-1 cells (Mus musculus, UniProt O35219); experiment: Whole-cell patch clamp of IKr endogenously expressed in HL-1 cells
Procedure: The cardiac murine HL-1 cell line, a kind gift from William Claycomb (Louisiana State University, New Orleans), was grown in 0.02% fibronectin (Sigma, United States) precoated flasks and maintained in complete Claycomb medium (Sigma, United States) supplemented with 10% fetal bovine serum (FBS; Sigma, United States), 2 mmol/L L-glutamine (Invitrogen, United States), 100 mmol/L norepinephrine (Sigma, United States), 100 U/mL of penicillin (TransGen, China), and 100 μg/mL of streptomycin (TransGen, China) at 37°C in humidified 5% CO2 and 95% air.
Whole-cell patch clamp technique was employed to record IhERG at room temperature (22 ± 1°C) using an AXON 200B amplifier through a digitizer (DigiData 1440A, Molecular Devices, United States) controlled by pClamp (v10.0) software. Cells were superfused with bath solution containing (mmol/L): NaCl 140, KCl 5.4, MgCl2 1, HEPES 10, glucose 10, and CaCl2 1 (pH 7.4). The pipette solution contained (mmol/L): KCl 140, MgCl2 1, HEPES 10, K-ATP4, and EGTA 5 (pH 7.3). […] The “pipette-to-bath” liquid junction potential calculated with this filling solution was about -2.7 mV. […]
as §3

**Q.** With `C=CC(=O)Nc1cc(Nc2nccc(-c3cn4c5c(cccc35)CCC4)n2)c(OC)cc1N(C)CCN(C)C` as the compound, how does the “incomplete (maximal) hERG block” value (hERG K+ channels (WT)) read?
**A.** Its value is “about 85%”.

**Q.** What about the “onset of inhibitory effect on tail currents after drug application” value (hERG K+ channels (WT); 10 μM) of the same compound?
**A.** Its value is 1 min.

**Q.** And the “time to steady-state response after drug application” value (hERG K+ channels (WT); 10 μM)?
**A.** The value was 5 min.

**Q.** And the “effect on deactivation time constants” value (hERG K+ channels (WT); 10 μM, P > 0.05)?
**A.** Its value is “did not affect”.

**Q.** And the “effect on inactivation time constant” value (hERG K+ channels (WT); 10 μM, P > 0.05)?
**A.** Its value is “not affected”.

**Q.** What about the “effect on steady-state activation” value (hERG K+ channels (WT); 10 μM, P > 0.05) of the same compound?
**A.** The value was “not affected”.

**Q.** What about the “effect on steady-state inactivation” value (hERG K+ channels (WT); 10 μM, P > 0.05) of the same compound?
**A.** The value was “not affected”.

**Q.** And the “time constant of pulse duration-dependent decay of relative tail current (onset of block)” value (hERG K+ channels (WT); 10 μM, envelope of tails protocol)?
**A.** The value was 172.26 ± 9.67 ms.

**Q.** What about the closed state block (hERG K+ channels (WT); 10 μM, step to +80 mV) of the same compound?
**A.** The closed state block was “minimal closed state block”.

**Q.** What about the “fold less inhibitory effect on hERG channels than AZD9291” value (hERG K+ channels (WT); HEK293 cells, IC50 ratio) of the same compound?
**A.** Its value is “about 15 fold”.

**Q.** What about the “slope factor (k) of concentration-response fit” value (shortened to “slope factor (k)”) (hERG K+ channels (WT); WT hERG, HEK293 cells) of the same compound?
**A.** Its value is 3.50.

**Q.** What about the “slope factor (k)” value (hERG K+ channels (WT); WT hERG, high [K+]e (94 mM)) of the same compound?
**A.** The value was 3.00.

**Q.** What about the “tail current recovered by washing out” value (hERG K+ channels (WT); after 10 μM drug application) of the same compound?
**A.** Its value is 88.40 ± 0.46%.

**Q.** What about the “half-activation voltage (V1/2) of steady-state activation” value (hERG K+ channels (WT); after 10 μM, control 9.86 ± 0.54 mV) of the same compound?
**A.** The value was 10.87 ± 1.46 mV and 10.87 mV.

**Q.** And the “time constant of hERG channel activation” value (hERG K+ channels (WT); envelope of tails protocol, +30 mV, 10 μM, Ctrl 294.42 ± 13.22 ms)?
**A.** The value was 261.48 ± 11.09 ms.

**Q.** What about the “margin between hERG IC50 and Cmax” value (hERG K+ channels (WT); hERG IC50 (HEK293) / rat Cmax) of the same compound?
**A.** The value was 38.5 fold.

**Q.** What about the IC50 (hERG K+ channels (WT); read-out: IC50 for block of WT-hERG inward tail current, WT hERG, high [K+]e (94 mM) bath solution) of the same compound?
**A.** The IC50 was 8.38 µM.

**Q.** And the “slope factor (k)” value (F557L-hERG; F557L)?
**A.** The value was 3.00 ± 1.39.

**Q.** And the “fold decrease in efficacy vs WT” value (F557L-hERG; F557L, smallest of the order Y652A > S624A > F656C > F557L)?
**A.** Its value is 2.3 fold.

**Q.** And the IC50 (F557L-hERG; read-out: IC50 for block of F557L-hERG tail current)?
**A.** The IC50 was 19.7 µM.

**Q.** And the “slope factor (k)” value (WT/H562P-hERG; WT/H562P-hERG)?
**A.** The value was 2.55.

**Q.** What about the “fold more potent inhibition vs WT hERG channels” value (WT/H562P-hERG; WT/H562P-hERG vs WT) of the same compound?
**A.** The value was 3 fold.

**Q.** And the IC50 (WT/H562P-hERG; read-out: IC50 for block of WT/H562P-hERG tail current, HEK293 cells)?
**A.** Its IC50 is 2.8 µM.

**Q.** What about the “slope factor (k)” value (S624A-hERG; S624A) of the same compound?
**A.** The value was 2.86 ± 1.63.

**Q.** What about the IC50 (S624A-hERG; read-out: IC50 for block of S624A-hERG tail current) of the same compound?
**A.** The IC50 was 47.6 µM.

**Q.** And the Cmax [1]?
**A.** Its Cmax is 220 nM.

**Q.** What about the “slope factor (k)” value (WT/A422T-hERG; WT/A422T-hERG) of the same compound?
**A.** Its value is 3.45.

**Q.** What about the “fold more potent inhibition vs WT hERG channels” value (WT/A422T-hERG; WT/A422T-hERG vs WT) of the same compound?
**A.** The value was “approximately 1.8 fold”.

**Q.** And the IC50 (WT/A422T-hERG; read-out: IC50 for block of WT/A422T-hERG tail current, HEK293 cells)?
**A.** The IC50 was 4.82 µM.

**Q.** What about the “slope factor (k)” value (F656C-hERG; F656C, high [K+]e (94 mM)) of the same compound?
**A.** Its value is 3.61.

**Q.** What about the IC50 (F656C-hERG; read-out: IC50 for block of F656C-hERG inward tail current, high [K+]e (94 mM) bath solution) of the same compound?
**A.** The IC50 was 46.1 µM.

**Q.** And the “slope factor (k)” value (Y652A-hERG; Y652A)?
**A.** Its value is 3.00 ± 1.87.

**Q.** And the “fold decrease in efficacy vs WT” value (Y652A-hERG; Y652A, largest of the order Y652A > S624A > F656C > F557L)?
**A.** The value was 7.9 fold.

**Q.** What about the IC50 (Y652A-hERG; read-out: IC50 for block of Y652A-hERG tail current) of the same compound?
**A.** The IC50 was 66.5 µM.

**Q.** What about the “fold greater IC50 than AZD9291” value (IKr in HL-1 cells; HL-1 IC50 vs AZD9291) of the same compound?
**A.** The value was 13 fold.

**Q.** And the “slope factor (k)” value (IKr in HL-1 cells; HL-1 cells, IKr tail current)?
**A.** The value was 2.21 ± 0.67.

**Q.** What about the IC50 (IKr in HL-1 cells; read-out: IC50 for block of IKr tail current, HL-1 cells) of the same compound?
**A.** The IC50 was 7.52 µM.

Where “and” joins values, the source holds several entries; their conditions need not be identical. Equal values may be shown once.
